This is an account of results in US20200017880A1.

Protein sequences, listed by entry. Tags and fused reporters are not part of them. Residues count along the entry.
UniProt P07766, 23-207: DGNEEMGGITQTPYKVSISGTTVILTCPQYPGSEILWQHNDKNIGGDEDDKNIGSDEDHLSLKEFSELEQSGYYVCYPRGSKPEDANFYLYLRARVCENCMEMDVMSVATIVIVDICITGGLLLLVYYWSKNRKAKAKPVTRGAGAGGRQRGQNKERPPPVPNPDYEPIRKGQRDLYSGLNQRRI

This assay deals with CD3 on Jurkat cells and on PBMCs (UniProt P07766). Kind of assay: flow cytometry; Fab monomers remaining on PBMCs after D-biotin and washing, detected with fresh PE-labelled Strep-Tactin.

With “anti-CD3 Fab fragment derived from antibody OKT3, heavy chain C-terminally fused to Twin-Strep-tag (monomeric Fab)”, the % of cells within gate was found to be 0.018%.
